This is an account of results in PubChem BioAssay (NCI).

The list shows a part of the results, in another mix than the full data. Where a structure was tested more than once in an assay, its records may differ in their call. Some salts or complexes appear as unconnected parts, following the source record. Calls of active or inactive are those of the source. No stated cut-off is given here; in the data, active means growth inhibition above about 70%; inactive means the rest.

The nature of assay [1]: NCI Yeast Anticancer Drug Screen. Data for the rad50 strain (AID 155).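 Further: 0% = growth of vehicle-only cultures of the same strain.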 The conditions noted are these: S. cerevisiae rad50 strain growth inhibition, stronger effect = higher value.
Assay [2] is described as follows: NCI Yeast Anticancer Drug Screen. Data for the mec2-1 strain (AID 157). The conditions noted are these: S. cerevisiae mec2-1 strain, stronger effect = higher value.
Assay [3] in a line: NCI Yeast Anticancer Drug Screen. Data for the sgs1 mgt1 strain (AID 161).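 Further: 0% = growth of cultures given vehicle only.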 The conditions noted are these: S. cerevisiae sgs1 mgt1 strain, stronger effect = higher value.
A short description of assay [4]: NCI Yeast Anticancer Drug Screen. Data for the cln2 rad14 strain (AID 165).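 Further: 0% = growth equal to vehicle treated cultures.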 The conditions noted are these: S. cerevisiae cln2 rad14 strain, stronger effect = higher value.
A short description of assay [5]: NCI Yeast Anticancer Drug Screen. Data for the bub3 strain (AID 167). The conditions noted are these: S. cerevisiae bub3 mutant strain, stronger effect = higher value.
Assay [6] is described as follows: NCI Yeast Anticancer Drug Screen. Data for the mlh1 rad18 strain (AID 175). The conditions noted are these: S. cerevisiae mlh1 rad18 strain growth inhibition, stronger effect = higher value.
The mark [7] stands for this setting: at 5.0 µM (retest, dose inferred, filed as 0.5).
Setting [8] is: at 50.0 µM (retest, dose inferred, filed as 5.0).

Consider `CN(CCCl)CCCl.CN(CCCl)CCCl.[Cl][Cu][Cl]`, for which the growth inhibition in assay [1] (at 50.0 µM) was inactive: 15.6%; in assay [2] (at 50.0 µM), inactive: -8.65%; in assay [3] (at 50.0 µM), inactive: -17.2%; in assay [4] (at 50.0 µM), inactive: 0.55%; in assay [5] (at 50.0 µM), inactive: 0%; in assay [6] (at 50.0 µM), inactive: 4.75%.

Turning to `CN(CCCl)CCCl`, the growth inhibition in assay [1] (at 50.0 µM) is active: 90.7%; in assay [2] (at 50.0 µM), active: 90.5%; in assay [3] (at 50.0 µM), active: 93.2%; in assay [4] (at 50.0 µM), active: 90.9%; in assay [5] (at 50.0 µM) it was active: 90.4%; in assay [6] (at 50.0 µM), active: 91.1%.

For the compound `CN(CCCl)CCCl.CN(CCCl)CCCl.[Cl][Pt+2][Cl]`, the growth inhibition in assay [1] (setting [7]) is inactive: 40%; in assay [1] (setting [8]), active: 97%; in assay [1] (at 50.0 µM) it was active: 88.8%; in assay [2] (setting [7]), inactive: 22%; in assay [2] (setting [8]) it was active: 98%; in assay [2] (at 50.0 µM), active: 90.5%. Moreover, the growth inhibition was inactive: 25% in assay [3] (setting [7]); active: 98% in assay [3] (setting [8]); active: 85.8% in assay [3] (at 50.0 µM); inactive: 26% in assay [4] (setting [7]); active: 98% in assay [4] (setting [8]); active: 76.8% in assay [4] (at 50.0 µM). Also, the growth inhibition was inactive: 6% in assay [5] (setting [7]); active: 96% in assay [5] (setting [8]); active: 80.2% in assay [5] (at 50.0 µM); inactive: 64% in assay [6] (setting [7]); active: 98% in assay [6] (setting [8]); active: 88.5% in assay [6] (at 50.0 µM).
